B1: Merlin (Homo sapiens), P35240 (parent)
chain: MAGAIASRMSFSSLKRKQPKTFTVRIVTMDAEMEFNCEMKWKGKDLFDLVCRTLGLRETWFFGLQYTIKDTVAWLKMDKKVLDHDVSKEEPVTFHFLAKFYPENAEEELVQEITQHLFFLQVKKQILDEKIYCPPEASVLLASYAVQAKYGDYDPSVHKRGFLAQEELLPKRVINLYQMTPEMWEERITAWYAEHRGRARDEAEMEYLKIAQDLEMYGVNYFAIRNKKGTELLLGVDALGLHIYDPENRLTPKISFPWNEIRNISYSDKEFTIKPLDKKIDVFKFNSSKLRVNKLILQLCIGNHDLFMRRRKADSLEVQQMKAQAREEKARKQMERQRLAREKQMREEAERTRDELERRLLQMKEEATMANEALMRSEETADLLAEKAQITEEEAKLLAQKAAEAEQEMQRIKATAIRTEEEKRLMEQKVLEAEVLALKMAEESERRAKEADQLKQDLQEAREAERRAKQKLLEIATKPTYPPMNPIPAPLPPDIPSFNLIGDSLSFDFKDTDMKRLSMEIEKEKVEYMEKSKHLQEQLNELKTEIEALKLKERETALDILHNENSDRGGSSKHNTIKKLTLQSAKSRVAFFEEL

Variants of: B1
Settings: with amot_human AMOT

effect of a mutation on the interaction | Variant
decreasing interaction | E463K
decreasing interaction | R346S

From IntAct's records for PubMed 21481793
